The values below are quoted from earlier work in article PMC6151961 (Journal of Enzyme Inhibition and Medicinal Chemistry, 2018).

Molecules are shown by their SMILES.

The data set deals with CA IX (Homo sapiens, UniProt Q16790). The settings on record: observed Ki of library compounds (IDs A..., B...); ref ChEMBL, BindingDB; cited from earlier work.

The term Ki denotes the dissociation constant of the complex between target and ligand, obtained from inhibition or displacement. Turning to `Nc1ccc(S(=O)(=O)N[N+](=O)[O-])cc1`, the Ki is 8.19 µM.
